Molecules are shown by their SMILES.

Protein sequences, listed by entry. Tags and fused reporters are not part of them.
UniProt P08913, whole entry: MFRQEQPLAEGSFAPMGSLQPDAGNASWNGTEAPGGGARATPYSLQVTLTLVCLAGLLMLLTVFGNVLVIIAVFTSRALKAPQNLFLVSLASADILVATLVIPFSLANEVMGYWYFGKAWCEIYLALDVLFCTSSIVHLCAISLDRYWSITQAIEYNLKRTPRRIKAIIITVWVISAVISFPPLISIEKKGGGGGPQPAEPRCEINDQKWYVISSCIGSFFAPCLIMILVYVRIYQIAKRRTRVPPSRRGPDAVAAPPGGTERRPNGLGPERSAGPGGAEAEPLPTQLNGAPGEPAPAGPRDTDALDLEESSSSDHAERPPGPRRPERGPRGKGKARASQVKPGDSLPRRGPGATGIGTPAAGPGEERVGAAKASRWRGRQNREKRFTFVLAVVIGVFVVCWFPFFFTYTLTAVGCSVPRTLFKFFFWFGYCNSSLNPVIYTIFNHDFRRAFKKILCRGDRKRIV
UniProt P31645, whole entry: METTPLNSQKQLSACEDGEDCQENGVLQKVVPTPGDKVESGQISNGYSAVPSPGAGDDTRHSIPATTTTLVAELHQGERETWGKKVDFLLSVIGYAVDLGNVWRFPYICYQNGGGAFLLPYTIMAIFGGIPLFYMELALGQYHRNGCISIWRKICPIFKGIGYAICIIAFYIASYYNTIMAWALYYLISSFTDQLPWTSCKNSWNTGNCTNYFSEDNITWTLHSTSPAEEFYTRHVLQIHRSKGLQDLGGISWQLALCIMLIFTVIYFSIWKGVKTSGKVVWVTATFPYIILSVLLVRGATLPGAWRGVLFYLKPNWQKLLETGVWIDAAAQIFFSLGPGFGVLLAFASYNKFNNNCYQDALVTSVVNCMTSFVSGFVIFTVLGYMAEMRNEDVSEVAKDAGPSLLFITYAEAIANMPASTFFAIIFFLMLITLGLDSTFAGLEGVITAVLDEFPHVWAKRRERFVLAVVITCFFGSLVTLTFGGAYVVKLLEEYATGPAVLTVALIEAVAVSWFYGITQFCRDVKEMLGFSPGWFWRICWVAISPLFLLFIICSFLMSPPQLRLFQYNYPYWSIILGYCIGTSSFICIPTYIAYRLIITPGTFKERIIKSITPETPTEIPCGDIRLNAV
UniProt P18825, whole entry: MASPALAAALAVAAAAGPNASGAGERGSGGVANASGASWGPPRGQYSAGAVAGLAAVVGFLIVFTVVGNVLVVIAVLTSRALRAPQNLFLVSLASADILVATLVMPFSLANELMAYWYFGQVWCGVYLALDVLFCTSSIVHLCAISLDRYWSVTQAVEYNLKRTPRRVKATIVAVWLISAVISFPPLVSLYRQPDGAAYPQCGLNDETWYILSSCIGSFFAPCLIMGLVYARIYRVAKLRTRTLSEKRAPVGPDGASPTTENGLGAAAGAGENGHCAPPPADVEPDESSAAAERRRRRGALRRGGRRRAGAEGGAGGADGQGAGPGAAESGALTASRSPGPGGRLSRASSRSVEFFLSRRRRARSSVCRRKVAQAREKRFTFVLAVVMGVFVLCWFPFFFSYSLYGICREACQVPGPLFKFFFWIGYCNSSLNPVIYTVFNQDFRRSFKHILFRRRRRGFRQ

One assay has as its target hα2A receptor (Homo sapiens, UniProt P08913). Briefly: Radioligand binding experiment for α2A-adrenergic receptor ([3H]-raulwolscine). The following applies: CHO cell membranes with human α2A receptor, [3H]raulwolscine 1 nM. On the procedure:
(§1) The interaction of the compounds of Formula (I) with hα2-receptors and h5-HT-transporters was assessed in in vitro radioligand binding experiments. In general, a low concentration of a radioligand with a high binding affinity for a particular receptor or transporter is incubated with a sample of a tissue preparation enriched in a particular receptor or transporter or with a preparation of cells expressing cloned human receptors in a buffered medium. During the incubation, the radioligand binds to the receptor or transporter. When equilibrium of binding is reached, the receptor bound radioactivity is separated from the non-bound radioactivity, and the receptor- or transporter-bound activity is counted. The interaction of the test compounds with the receptor is assessed in competition binding experiments. […]
(§2) Membranes were thawed and re-homogenized in incubation buffer (glycylglycine 25 mM, pH 8.0). […] Filter-bound radioactivity was determined by scintillation counting in a Topcount (Packard, Meriden, Conn.) and results were expressed as counts per minute (cpm). Non-specific binding was determined in the presence of 1 μM oxymetazoline for hα2A- and hα2B receptors and 1 μM spiroxatrine for hα2C receptors.
(§3) Data from assays in the presence of compound were calculated as a percentage of total binding measured in the absence of test compound. […]

The next assay concerns the target h5-HT transporter (Homo sapiens, UniProt P31645). Briefly: Radioligand binding experiment for 5-HT transporter ([3H]paroxetine). Conditions: human platelet membranes, [3H]paroxetine 0.5 nM. Here is the method:
as §1
Human platelet membranes (Oceanix Biosciences Corporation, Hanover, Md., USA) were thawed, diluted in buffer (Tris-HCl 50 mM, 120 mM NaCl and 5 mM KCl) and quickly (max 3 s) homogenised with an Ultraturrax homogenizer. […] Filters were rinsed extensively with ice-cold buffer and radioactivity on the filters was counted in a Topcount liquid scintillation counter (Packard, Meriden, Conn.). Data were expressed as cpm. […]
as §3

A further assay deals with hα2C receptor (Homo sapiens, UniProt P18825). Put plainly: Radioligand binding experiment for α2C-adrenergic receptor ([3H]-raulwolscine). The following applies: CHO cell membranes with human α2C receptor, [3H]raulwolscine 1 nM. Here is the method:
as §1, §2, §3

Regarding `COc1ccc(Nc2ccc3c(c2)C2=NOC(CN4CCN(CC=Cc5ccccc5)CC4)C2CO3)cc1` (stereo not drawn), at hα2A receptor, the “pIC50 α2A” value worked out at 7.7. Moreover, the “pIC50 HTT” value at h5-HT transporter stood at 6.4. Also, the “pIC50 α2C” value at hα2C receptor amounted to 7.2.
`CC(=Cc1ccccc1)CN1CCN(CC2ON=C3c4cc5c(cc4OCC32)NCCO5)CC1` (stereo not drawn): at hα2A receptor, the “pIC50 α2A” value is listed as 8.4. Besides, the “pIC50 HTT” value at h5-HT transporter amounted to 7.9. Also, the “pIC50 α2C” value on hα2C receptor is reported as 9.2.

Source of the values: patent US7265103B2, “Substituted amino isoxazoline derivatives and their use as anti-depressants” (Janssen Pharmaceutica NV., priority 2002, dated 2007).
